# Experimental data reported in PubChem BioAssay AID1910 (Broad Institute, 2009).
# The entries are a selection whose mix differs from that of the whole data set. Calls of active or inactive are those of the source.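 Rule for the calls: active = mean activation of at least 10% of the iron chelator positive control signal, with at least half of replicates also reaching 10%; inconclusive = mean and replicate majority disagree about reaching 10%; inactive = mean and most replicates under 10%.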
# Experiment: hypoxia response element reporter activation – cell-based, U2OS HRE-luciferase, luminescence, primary screen (AID 1910)
# Details: hits give high values, screened at 7.5 µM (by protocol), normalized: DMSO 0%, desferrioxamine 100%
row,SMILES,activation
1,CN(C)c1ccc(C(=O)NCC2(N3CCCCC3)CCCCC2)cc1,inactive: -0.439%
2,CCN1CCC(Nc2cccc(F)c2)CC1,inactive: -0.0656%
3,Cc1ccc(C(=O)NCC2(N3CCCCC3)CCCCC2)o1,inactive: 0.19%
4,Fc1ccccc1NC1CCN(Cc2ccccc2)CC1,inactive: -0.0313%
5,COc1cc(OC)cc(C(=O)NCC2(N3CCCCC3)CCCCC2)c1,inactive: -0.721%
6,CN1CCC(Nc2ccc(Cl)cc2)CC1,inactive: 0.0709%
7,CCCOc1ccc(C)cc1CN(CCCl)CCCl,inactive: 0.196%
8,COc1cc(OC)cc(C(=O)NCC2(N3CCOCC3)CCCCC2)c1,inactive: -1.36%
9,COc1cccc(C(=O)N(c2cc(C)cc(C)c2)C2CCN(C(=O)OC(C)(C)C)CC2)c1,inactive: -0.279%
10,CCC(CO)(C(=O)OC1CN2CCC1CC2)c1ccccc1 (centres undefined),inactive: -0.164%
11,CC(C)(C)OC(=O)N1CCC(Nc2ccccc2)CC1,inactive: -0.0431%
12,O=C(O)C1(Nc2ccccc2)CCN(Cc2ccccc2)CC1,inactive: -3.63%
13,CCCOc1ccc(C(=O)NCC2(N(C)C)CCCCC2)cc1,inactive: 1.51%
14,CCOc1ncccc1C(=O)NCC1(N2CCOCC2)CCCCC1,inactive: -0.694%
15,CN1CCC(Nc2ccc(F)c(Cl)c2)CC1,inactive: -1.87%
16,O=C(OC1CN2CCC1CC2)C1c2ccccc2C=Cc2ccccc21 (centres undefined),inactive: 0.403%
17,CCc1cc(C(=O)NCC2(N3CCCCC3)CCCCC2)sc1C,inactive: -0.562%
18,CCOC(=O)N1CCC(Nc2ccc(C)cc2)CC1,inactive: -2.5%
19,N/C(=N\O)c1c(N)no[n+]1[O-],inactive: -0.2%
20,COc1ccc(C(=O)NCC2(N3CCOCC3)CCCCC2)cc1OC,inactive: -0.123%

row,SMILES,activation
1,CN(C)C1(CNC(=O)c2cccc(C#N)c2)CCCCC1,inactive: -1.98%
2,c1ccc(CN2CCC(Nc3ccccc3)CC2)cc1,inactive: -1.63%
3,CCCN1CCC(Nc2cc(OC)cc(OC)c2)CC1,inactive: -3.96%
4,N#Cc1ccc(C(=O)NCC2(N3CCCCC3)CCCCC2)cc1,inactive: -0.732%
5,CC(C)(C)OC(=O)N1CCC(N(C(=O)c2ccccc2)c2ccc(Cl)cc2)CC1,inactive: 0.0481%
6,COc1cc(C(=O)NCC2(N3CCCCC3)CCCCC2)ccc1OC(F)F,inactive: 0.555%
7,O=C(NCC1(N2CCOCC2)CCCCC1)c1cc(=O)[nH]c2ccccc12,inactive: -0.161%
8,CN1CCN(CCOC(=O)C(O)(c2ccccc2)c2ccccc2)CC1,inactive: 1.03%
9,COc1ccc(NC2CCN(C(=O)OC(C)(C)C)CC2)cc1,inactive: 0.467%
10,O=C(NCC1(N2CCCCC2)CCCCC1)c1cccc(C(F)(F)F)c1,inactive: -0.702%
11,CCN1CCC(Nc2ccc(Cl)cc2)CC1,inactive: -1%
12,N#CC1(Nc2ccccc2)CCN(CCc2ccccc2)CC1,inactive: 0.0182%
13,O=C(NCC1(N2CCCCC2)CCCCC1)c1cccc([N+](=O)[O-])c1,inactive: -1.11%
14,O=C(NCC1(N2CCCCC2)CCCCC1)c1ccc(OC(F)F)cc1,inactive: 0.358%
15,CCCOc1ccc(C(=O)NCC2(N(C)C)CCCCC2)cc1OC,inactive: -0.0852%
16,CN1CCC(Nc2cccc(F)c2)CC1,inactive: 0.589%
17,COc1cc(OC)c(C(=O)NCC2(N(C)C)CCCCC2)cc1OC,inactive: -0.576%
18,CC(C)c1ccc(NC2CCN(C(=O)OC(C)(C)C)CC2)cc1,inactive: 3.37%
19,COc1ccc(CN(CCCl)CCCl)cc1Cl,inactive: -0.617%
20,CN(C)c1cccc(C(=O)NCC2(N3CCCCC3)CCCCC2)c1,inactive: -0.656%

row,SMILES,activation
1,O=C(OC1CN2CCC1CC2)C1c2ccccc2Oc2ccccc21 (centres undefined),inactive: 0.368%
2,N#CC1(Nc2ccccc2)CCN(Cc2ccccc2)CC1,inactive: -0.00916%
3,CCOC(=O)N1CCC(Nc2ccc(OC)cc2)CC1,inactive: -0.188%
4,O=C(NCC1(N2CCCCC2)CCCCC1)c1ccc(Cl)nc1,inactive: 0.288%
5,Cc1cc(C)cc(N(C(=O)c2ccccc2)C2CCN(C(=O)OC(C)(C)C)CC2)c1,inactive: 1.25%
6,O=C(NCC1(N2CCOCC2)CCCCC1)c1cc2ccccc2o1,inactive: -0.225%
7,CSc1ccccc1C(=O)NCC1(N2CCCCC2)CCCCC1,inactive: -1.37%
8,COc1ccc(C(=O)NCC2(N3CCCCC3)CCCCC2)cc1,inactive: 0.611%
9,CC(C)(C)OC(=O)N1CCC(N(C(=O)c2ccccc2)c2ccc(F)cc2)CC1,inactive: 0.0904%
10,COc1ccc(C(=O)NCC2(N3CCCCC3)CCCCC2)c(OC)c1OC,inactive: 0.0903%
11,O=C(NCC1(N2CCCCC2)CCCCC1)c1ccc(=O)[nH]c1,inactive: -0.543%
12,O=C(NCC1(N2CCCCC2)CCCCC1)c1cccs1,inactive: 0.175%
13,COc1cc(C(=O)NCC2(N(C)C)CCCCC2)ccc1OC(F)F,inactive: -0.238%
14,CCOC(=O)N1CCC(Nc2cccc(C)c2)CC1,inactive: -2.39%
15,Cc1ccc(OCC(C)C)c(CN(CCCl)CCCl)c1,inactive: -0.536%
16,O=C(NCC1(N2CCCCC2)CCCCC1)c1ccc(F)cc1,inactive: 1.22%
17,COc1ccc(NC2CCN(CCc3ccccc3)CC2)c(OC)c1,inactive: -0.746%
18,CCOC(=O)N1CCC(Nc2ccc(F)cc2)CC1,inactive: 1.26%
19,CCOc1ccc(C)cc1CN(CCCl)CCCl,inactive: -0.374%
